{
  "source": "patent US4134989A",
  "about": "“Guaiacol p-isobutyl hydratropate” (Aziende Chimiche Riunite Angelini Francesco A.C.R.A.F. …, priority 1976, dated 1979)",
  "tested_on": "rats",
  "settings": "by gavage",
  "data": [
    {"smiles": "COc1ccccc1OC(=O)C(C)c1ccc(CC(C)C)cc1", "note": "(stereo not shown) [GIH, guaiacol p-isobutyl hydratropate]", "values": [
      {"measurement": "acute toxicity compared with ibuprofen", "result": "definitely less toxic than ibuprofen"}
    ]}
  ]
}
